Test: solubility, turbidity and stability of ingredients in water
Assay type: physicochemical
Conditions: minerals considered for the concentrate
Protocol: In the embodiment of the current invention, each ingredient is screened for solubility in water and for producing transparent liquid without any turbidity or observed opaqueness. Each ingredient or nutrient is evaluated at suitable concentration (based on actual usage level) in 100 ml deionized water enclosed in glass bottle and checked for turbidity. Only non turbidity producing materials (estimated at 25 NTU or less) were selected. Visual evaluation also conducted to ensure clear liquids are obtained. Solutions with an estimated 30 NTG and above are eliminated as potential ingredients. Bottles were also checked for precipitated solids at 0, 2, 4, 6, 8, 10 and 24 hours at room temperature. If precipitate is observed, the ingredient/nutrient is rendered unusable for producing appealing liquid nutritional supplement. Furthermore, ingredients are evaluated in a final diluted liquid nutritional supplement and/or diluents to ensure that dilution will not change the physical appearance of concentrates. […] Each ingredient or nutrient is evaluated at suitable concentration (based on actual usage level) in 100 ml deionized water enclosed in glass bottle and checked turbidity. […] Furthermore, ingredients are evaluated in a final diluted liquid nutritional supplement to ensure that dilution will not change the physical appearance of concentrates. […]

[Ca+2] [calcium]
effect on clarity of concentrate and finished liquid nutritional supplement: induce cloudiness and turbidity | solubility: not soluble
